Ab-95 light chain CDR variants: yeast mating affinities

Antigen: PDVDLGDISGINAS, a 14-residue peptide of the SARS-CoV-2 spike HR2 region.

Each scFv is VH, a 15-residue (Gly4Ser)3 linker, VL, as in the parent Ab-95, and differs from it in the CDRs of the light chain only.
VH: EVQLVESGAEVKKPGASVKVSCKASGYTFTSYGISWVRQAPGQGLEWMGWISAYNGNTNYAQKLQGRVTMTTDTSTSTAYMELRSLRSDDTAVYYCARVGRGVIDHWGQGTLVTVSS
VL: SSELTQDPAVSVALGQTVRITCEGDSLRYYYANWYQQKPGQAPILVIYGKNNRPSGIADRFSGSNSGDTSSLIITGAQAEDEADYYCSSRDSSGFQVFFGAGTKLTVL

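Phage display of a naive human antibody library on the peptide gave the parent. The library (AAYL52) carries one to three amino acid substitutions per variant, with no insertions or deletions. In AlphaSeq, yeast of one mating type display the scFv and yeast of the other type display the target. Mating (16 h, 30 °C) was followed by selection of diploids and sequencing of their barcodes. Scores were corrected for input abundance and mapped to Kd with protein pairs of known affinity run in the same pool. Each pool was mated in three replicate cultures.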

Each variant is given by its three light chain CDRs, as the data file delimits them; those of the parent are EGDSLRYYYAN, GKNNRPS, SSRDSSGFQVF. Numbers give log10(Kd / nM), so 0 is 1 nM and 3 is 1 µM. Smaller is tighter. An entry "n.d." has no value in the source: the pair was not observed among the diploids in that replicate. This suggests poor binding but is not conclusive. Background: pairings of library AAYL52 with three empty control strains gave a value in 28% of cases (median 3.91, 5th percentile 2.90). Values in that range, when seen in few replicates, are hard to tell from nonspecific mating. The control count says in how many pairings with the empty strains this scFv gave a signal, with their mean in brackets.

| CDR-L1 | CDR-L2 | CDR-L3 | replicates, log10 nM | empty controls |
|---|---|---|---|---|
| EGTTHRYYYAN | GKNNRPS | SSRDSSGFQVF | 4.31 n.d. 4.35 | 1 of 9 (3.37) |
| EGDSLRVYYAN | GKNNRPS | SFRDSSGFQRF | 3.50 5.63 3.61 | 3 of 9 (3.75) |
| EGDSLRYYYAA | GKNNRPS | SSRDSSGFGIF | n.d. 5.41 n.d. | 1 of 9 (3.49) |
| EGDSLRYYYEN | TKNNRPS | SSRDSSGFQKF | 4.17 n.d. n.d. | 2 of 9 (4.56) |
| EGDSYRYYYAN | GKNNRPS | SSRGSSGFQVV | 2.99 5.12 n.d. | 1 of 9 (2.48) |
| EGDSLRYYYHN | GKNNRPS | SSRDSNGFQVN | n.d. 4.66 n.d. | 0 of 9 |
| EADSLRKYYAN | GKNNRPS | SHRDSSGFQVF | 3.59 n.d. n.d. | 3 of 9 (4.08) |
| EDDSLRRYYAN | GKNNKPS | SSRDSSGFQVF | 2.94 2.49 3.05 | 3 of 9 (4.44) |
| CPDSLRYYYAN | GKNNRWS | SSRDSSGFQVF | n.d. n.d. n.d. | 0 of 9 |
| EGDSLRYYDAN | GKNNRPS | SSCDSSGFRVF | 2.18 2.03 1.76 | 7 of 9 (4.00) |
| EGDSLRYYYAN | CKNNYPS | SSRDSFGFQVF | 5.21 n.d. 3.72 | 2 of 9 (4.37) |
| EGDSLREYYAN | GKNNRMS | SSRDSSGFQVF | 2.49 2.20 2.03 | 2 of 9 (3.85) |
| EGDSLMYYYAQ | GKNVRPS | SSRDSSGFQVF | 2.37 1.79 1.93 | 0 of 9 |
| EGDSLRYYYAN | GKNNRPS | SSRDSSAFQVF | 2.35 2.25 2.08 | 2 of 9 (3.74) |
| EGDVVRYYYAN | GKNNRPS | SSRDSSGFQVL | 2.81 3.67 3.44 | 0 of 9 |
| ERDSLRYYYAN | GKNNWPS | SSRDSSGFQVP | n.d. 5.21 n.d. | 2 of 9 (4.33) |
| EWDSLRYYYAN | GKNNRPS | SSRTSSGQQVF | 4.03 4.97 3.76 | 4 of 9 (3.79) |
| QWDSLRYYYAN | LKNNRPS | SSRDSSGFQVF | n.d. n.d. n.d. | 1 of 9 (3.79) |
| EGDSLRYYYAN | GKNNRPS | SSRDRSGFQWF | 5.23 n.d. n.d. | 1 of 9 (5.11) |
| EGDSLRYYYAN | GKNNFPS | SYEDSSGFQVF | n.d. n.d. n.d. | 2 of 9 (3.11) |
| EWDSLRYYYAK | GCNNRPS | SSRDSSGFQVF | 4.87 n.d. n.d. | 5 of 9 (3.57) |
| EGDSLRYYYAT | GKNTRPS | SSRDSSGFQYF | n.d. n.d. n.d. | 2 of 9 (3.74) |
| EGDSLRYYYSN | GKEIRPS | SSRDSSGFQVF | 3.37 n.d. n.d. | 2 of 9 (3.33) |
| EGDSLRYYNAN | GKHNRKS | SSRDSSGFQVF | n.d. 2.60 2.53 | 1 of 9 (3.01) |
| EGDSLRWYYAN | GKNNRPS | SVHDSSGFQVF | 3.07 3.33 3.58 | 4 of 9 (3.53) |
| EGDSLRYYYAM | PKNNRPS | SARDSSGFQVF | n.d. 5.60 3.95 | 5 of 9 (4.08) |
| EGDSLRYYYAN | GKFNAPS | SSRDSSGFQVF | 3.35 3.14 4.33 | 5 of 9 (3.71) |
| EGDSLKYYYAN | GSNIRPS | SSRDSSGFQVF | 2.99 3.02 3.85 | 2 of 9 (4.20) |
| EGDSLMYYYAN | GKNNRPS | SSRDSRGFQHF | 3.40 3.57 3.86 | 4 of 9 (4.25) |
| EGDWLRKYYAN | GKNNRPS | SSRDSSGFQVF | n.d. n.d. n.d. | 5 of 9 (4.34) |
| EGDELRYNYAN | GKNNRPS | SSRDRSGFQVF | 1.07 1.05 0.38 | 3 of 9 (3.63) |
| EGDQLRYYYQN | GKNNRPS | SSVDSSGFQVF | 5.57 5.49 4.06 | 2 of 9 (3.30) |
| EFLSLRYYYAN | GKNNRPS | SSRDSSGFQVF | 5.03 3.52 n.d. | 2 of 9 (3.61) |

For reference, 3 entries of the list once more:

| CDR-L1 | CDR-L2 | CDR-L3 | replicates, log10 nM | empty controls |
|---|---|---|---|---|
| EFLSLRYYYAN | GKNNRPS | SSRDSSGFQVF | 5.03 3.52 n.d. | 2 of 9 (3.61) |
| EGDSLRYYYAN | GKFNAPS | SSRDSSGFQVF | 3.35 3.14 4.33 | 5 of 9 (3.71) |
| EDDSLRRYYAN | GKNNKPS | SSRDSSGFQVF | 2.94 2.49 3.05 | 3 of 9 (4.44) |

Reference: Engelhart et al. 2022, doi:10.1038/s41597-022-01779-4. File: FLAb, binding data.